{"source": "IntAct's records for PubMed 23435564", "parents": {"B1": {"name": "DNA polymerase III subunit epsilon (Escherichia coli (strain K12)), P03007 (parent)", "chain": "MSTAITRQIVLDTETTGMNQIGAHYEGHKIIEIGAVEVVNRRLTGNNFHVYLKPDRLVDPEAFGVHGIADEFLLDKPTFAEVADEFMDYIRGAELVIHNAAFDIGFMDYEFSLLKRDIPKTNTFCKVTDSLAVARKMFPGKRNSLDALCARYEIDNSKRTLHGALLDAQILAEVYLAMTGGQTSMAFAMEGETQQQQGEATIQRIVRQASKLRVVFATDEEIAAHEARLDLVQKKGGSCLWRA"}, "B2": {"name": "DNA polymerase III subunit alpha (Escherichia coli (strain K12)), P10443 (parent)", "chain": "MSEPRFVHLRVHSDYSMIDGLAKTAPLVKKAAALGMPALAITDFTNLCGLVKFYGAGHGAGIKPIVGADFNVQCDLLGDELTHLTVLAANNTGYQNLTLLISKAYQRGYGAAGPIIDRDWLIELNEGLILLSGGRMGDVGRSLLRGNSALVDECVAFYEEHFPDRYFLELIRTGRPDEESYLHAAVELAEARGLPVVATNDVRFIDSSDFDAHEIRVAIHDGFTLDDPKRPRNYSPQQYMRSEEEMCELFADIPEALANTVEIAKRCNVTVRLGEYFLPQFPTGDMSTEDYLVKRAKEGLEERLAFLFPDEEERLKRRPEYDERLETELQVINQMGFPGYFLIVMEFIQWSKDNGVPVGPGRGSGAGSLVAYALKITDLDPLEFDLLFERFLNPERVSMPDFDVDFCMEKRDQVIEHVADMYGRDAVSQIITFGTMAAKAVIRDVGRVLGHPYGFVDRISKLIPPDPGMTLAKAFEAEPQLPEIYEADEEVKALIDMARKLEGVTRNAGKHAGGVVIAPTKITDFAPLYCDEEGKHPVTQFDKSDVEYAGLVKFDFLGLRTLTIINWALEMINKRRAKNGEPPLDIAAIPLDDKKSFDMLQRSETTAVFQLESRGMKDLIKRLQPDCFEDMIALVALFRPGPLQSGMVDNFIDRKHGREEISYPDVQWQHESLKPVLEPTYGIILYQEQVMQIAQVLSGYTLGGADMLRRAMGKKKPEEMAKQRSVFAEGAEKNGINAELAMKIFDLVEKFAGYGFNKSHSAAYALVSYQTLWLKAHYPAEFMAAVMTADMDNTEKVVGLVDECWRMGLKILPPDINSGLYHFHVNDDGEIVYGIGAIKGVGEGPIEAIIEARNKGGYFRELFDLCARTDTKKLNRRVLEKLIMSGAFDRLGPHRAALMNSLGDALKAADQHAKAEAIGQADMFGVLAEEPEQIEQSYASCQPWPEQVVLDGERETLGLYLTGHPINQYLKEIERYVGGVRLKDMHPTERGKVITAAGLVVAARVMVTKRGNRIGICTLDDRSGRLEVMLFTDALDKYQQLLEKDRILIVSGQVSFDDFSGGLKMTAREVMDIDEAREKYARGLAISLTDRQIDDQLLNRLRQSLEPHRSGTIPVHLYYQRADARARLRFGATWRVSPSDRLLNDLRGLIGSEQVELEFD"}}, "data": [{"variants_of": "B1", "details": "with dpo3b_ecoli dnaN", "values": [{"variant": "Q182A", "effect of a mutation on the interaction": "disrupting interaction"}]}, {"variants_of": "B1", "details": "with dpo3b_ecoli dnaN", "remark": "another data set of the same source", "values": [{"variant": "T183L;M185P;A186L;F187P", "effect of a mutation on the interaction": "increasing interaction"}]}, {"variants_of": "B2", "details": "with dpo3b_ecoli dnaN", "values": [{"variant": "A921L;M923L", "effect of a mutation on the interaction": "increasing interaction"}]}]}
